Bioassay records from PubChem BioAssay.
Rows were chosen to be rich in hits. Some 1.2% of all compounds tested hit in one or more screens of this group.
Tb MetRS inh: blocks T. brucei methionyl-tRNA synthetase activity. 0.4% of 360,000 active. inhibition, % at 11.9 µM. purified T. brucei MetRS, ATP depletion, Kinase-Glo luminescence;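 active means inhibition above a per-plate cutoff of the control wells' mean inhibition plus 3 SD, cut at about 5.5% in these data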;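 further: 0% = DMSO wells median and 100% = median of wells with control inhibitor compound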
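Material – parasite MetRS enzyme · Medium – HEPES-MgCl2-KCl buffer plus DTT, spermine, BSA, pyrophosphatase · Reagent – ATP, methionine and E. coli bulk tRNA substrates · Times – 15 min enzyme-compound preincubation, 2 h reaction, 10 min detection, 25 °C · Measured by – luminescence of leftover ATP · Evaluation – percent inhibition relative to median high and low control wells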
Yeast UUG start: modulators of yeast start codon fidelity, primary screen, whole organism, S. cerevisiae, single point, plate reader. S. cerevisiae UUG-firefly luciferase reporter, luminescence/redox ratio. activity score, % at 18.7 µM. 350,000 tested, 0.13% active;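 active = replicate mean at a twofold rise or more, about +100% in these data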;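 also: firefly luciferase made from a UUG start codon reports start codon fidelity; reporter light over untreated wells divided by growth signal over untreated wells; some hits fall short of that in this replicate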
DSG3 Ab inh: blocks pemphigus antibody binding to human desmoglein-3; P32926; DSG3-coupled beads, scFv-anti-DSG3-GFP binding, flow cytometry; stronger effect = lower value; binding (percent of control), % at 10 µM; 0.48% of 310,000 active; AID 588358;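 active means binding more than 3 SD below its plate's average and above zero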;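 further: hits lower antibody fragment binding to DSG3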
Rce1 inhib: blocks yeast Ras-converting enzyme; Q03530; yeast membranes, quenched prenylated peptide cleavage fluorescence; calls only; 0.27% of 290,000 active; AID 2563;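 active means fall in fluorescence gain of 50% or more versus controls, with final raw signal at or below 3038400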;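 further: plate controls were neutral control wells for no effect and wells lacking membranes for full effect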
Arr AP2 block: blocks beta-arrestin peptide binding to AP2 adaptin. FITC-arrestin peptide / GST-AP2 beads, flow cytometry; AP2 beta2 appendage carries R879A mutation. inhibition, % at 10 µM. 0.31% of 340,000 active. AID 504490;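 active means inhibition above a set limit, near 3 SD of compounds lacking own fluorescence, cut at about 54% in these data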;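 further: plate controls were DMSO wells for no effect and 5 µM unlabelled arrestin peptide for full effect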
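Material – GST-tagged AP2 beta2-adaptin appendage (R879A) on 4 µm glutathione beads · Probe or stimulus – fluorescein-tagged arrestin peptide at 50 nM final · Timing – 12 min plus 1 h, RT · Detection – bead flow cytometry, FITC channel · Read-out basis – inhibition as reduced fluorescein signal on beads, percent · Medium – PBS plus Tween 20 (0.05%) and BSA (0.1%)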
Arr-AP2 CP1: blocks beta-arrestin peptide binding to human AP2. inhibition, % at 10 µM. shares compounds with Arr AP2 block. 2% of 1,300 active. GST-AP2 beads, FITC arrestin peptide binding, flow cytometry; GST-fused beta2-adaptin appendage, R879A mutant;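 active means inhibition above a set limit, roughly 3 SD of non-fluorescent compound noise, cut at about 38% in these data; inactive means inhibition at or below that limit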;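 further: loss of bead fluorescence from 50 nM FITC arrestin peptide bound to appendage; 0% = negative control wells and 100% = excess unlabelled arrestin peptide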
GST GSH counter: disrupts GST binding to glutathione beads, arrestin-AP2 artifact | inhibition, % at 10 µM | shares compounds with Arr AP2 block | GST-fluorescein binding to GSH beads, fluorescence, counter-screen | 2% of 1,300 active | AID 588338;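 active means inhibition above 50%, about 3 SD of the inhibition seen with non-fluorescent compounds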;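 further: fluorescein maleimide labelled GST captured on 4 micron glutathione beads; higher means more loss of bead fluorescence from quenching or blocked binding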
* marks the source's active call; other numbers are inactive results; i = inactive; · = not tested or not shown.

item	SMILES	Tb MetRS inh	Yeast UUG start	DSG3 Ab inh	Rce1 inhib	Arr AP2 block	Arr-AP2 CP1	GST GSH counter
1	O=C(CNC(=S)NC(=O)c1ccccc1Br)c1ccccc1	1	·	6.1*	i	102*	27	10
2	C[C@@H]1CCCCO[C@H](CN(C)S(=O)(=O)c2cccs2)[C@@H](C)CN([C@H](C)CO)C(=O)c2cc(NS(=O)(=O)c3ccccc3)ccc2O1	·	-7	·	·	·	·	·
3	Cn1ccnc1SCc1cn2ccccc2n1	0	-26	94	i	83*	3	5
4	c1ccn2cc(CSc3nnc4ccccn34)nc2c1	-1	·	99	·	-6	·	·
5	CC(C)CC#Cc1ccc2c(c1)O[C@@H](CN(C)C(=O)Cc1ccccc1)[C@H](C)CN([C@H](C)CO)S2(=O)=O	·	1	·	·	·	·	·
6	COC(=O)CSc1nc(SCc2ccc(C)cc2)nc2c1CCCC2	0	-3	102	i	99*	-7	6
7	CCNC(=O)C[C@H]1C=C[C@H](NS(=O)(=O)c2ccc(F)cc2)[C@H](CO)O1	·	-12	·	·	·	·	·
8	COc1cccc(CNC(=O)c2ccncc2)c1	0	-7	·	i	68*	-5	-2
9	CC(=O)c1nn(-c2ccccc2)cc1C(=O)c1ccc(Br)cc1	0	·	88	i	104*	-6	-9
10	CC(=O)c1nn(-c2cccc(Br)c2)cc1C(=O)c1ccccc1	-1	-25	97	i	16	·	·
11	Cc1cc(C)cc(NC(=O)Nc2ccc3c(c2)C(=O)N(C)[C@@H]2CC[C@H](CC(=O)O)O[C@@H]2CO3)c1	·	-2	·	·	·	·	·
12	CCNC(=O)Nc1ccc2c(c1)C(=O)N(C)[C@H]1CC[C@H](CC(=O)Nc3ccccc3F)O[C@@H]1CO2	·	10	·	·	·	·	·

Arranged by molar mass (rising): three of the compounds above.
item	SMILES	Tb MetRS inh	Yeast UUG start	DSG3 Ab inh	Rce1 inhib	Arr AP2 block	Arr-AP2 CP1	GST GSH counter
8	COc1cccc(CNC(=O)c2ccncc2)c1	0	-7	·	i	68*	-5	-2
4	c1ccn2cc(CSc3nnc4ccccn34)nc2c1	-1	·	99	·	-6	·	·
6	COC(=O)CSc1nc(SCc2ccc(C)cc2)nc2c1CCCC2	0	-3	102	i	99*	-7	6

Some of these compounds in order of the DSG3 Ab inh value, descending.
nr	mol	DSG3 Ab inh
6	COC(=O)CSc1nc(SCc2ccc(C)cc2)nc2c1CCCC2	102
4	c1ccn2cc(CSc3nnc4ccccn34)nc2c1	99
3	Cn1ccnc1SCc1cn2ccccc2n1	94

The list goes on.
item	SMILES	Tb MetRS inh	Yeast UUG start	DSG3 Ab inh	Rce1 inhib	Arr AP2 block	Arr-AP2 CP1	GST GSH counter
13	CN1CCN(S(=O)(=O)c2cc([N+](=O)[O-])ccc2N/N=C/c2ccc(Cl)cc2)CC1	0	3	100	i	98*	2	-3
14	CC1CCN(C2(O)C(=O)Nc3ccc(Cl)cc32)CC1 (stereo not given)	-1	-6	103	i	5	·	·
15	CC1CCCN(C2(O)C(=O)Nc3ccc(Cl)cc32)C1 (stereo not given)	0	·	92	i	57*	12	-1
16	O=C(Nc1ccc(F)cc1)N1C[C@H]2[C@@H](c3ccccc31)[C@@H](CO)N2C(=O)c1ccccc1	·	79	·	·	·	·	·
17	CO/N=C/C(c1ncc(C(F)(F)F)cc1Cl)S(=O)(=O)c1ccccc1 (stereo not given)	0	-15	119	i	10	·	·
18	CO/N=C/C(c1ccc(Cl)nc1)S(=O)(=O)c1ccccc1 (stereo not given)	-1	-12	87	i	57*	14	-3
19	CCOc1ccc(C(C)=O)cc1N1C(=O)C2C3C=CC(C3)C2C1=O (stereo not given)	0	-3	101	i	1	·	·
20	CCOc1ccc(C(C)=O)cc1N1C(=O)C2C3C=CC(O3)C2C1=O (stereo not given)	-1	·	77	i	78*	-2	-6
21	O=C(O)[C@H]1CC=C[C@H]2CCN(Cc3ccc(Cl)c(Cl)c3)C(=O)[C@@H]12	-1	-13	103	·	67*	-4	1
22	O=C1[C@H]2[C@H](C=CC[C@H]2C(=O)N2CCOCC2)CCN1Cc1ccc(Cl)c(Cl)c1	·	·	·	i	·	·	·
23	NC1=NCC(O)=C1c1nc2ccccc2[nH]1	-1	·	111	i	66*	-9	4
24	COC(=O)c1cccc(Cn2c(Cl)c(/C=N/NC(=O)c3ccco3)sc2=O)c1	0	·	104	i	57*	-8	7

Remaining list, next part
item	SMILES	Tb MetRS inh	Yeast UUG start	DSG3 Ab inh	Rce1 inhib	Arr AP2 block	Arr-AP2 CP1	GST GSH counter
25	COC(=O)c1cccc(Cn2c(Cl)c(/C=N/NC(=O)c3ccccc3Cl)sc2=O)c1	0	-9	100	i	7	·	·
26	CCOc1ccc(/C=N/NC(=O)Cc2csc(Nc3cccc(C(F)(F)F)c3)n2)cc1	0	-14	102	i	86*	9	2
27	CCN(C(=O)COC(=O)Cc1c[nH]c2ccccc12)c1c(N)n(Cc2ccccc2)c(=O)[nH]c1=O	0	-4	107	i	71*	-5	-6
28	CN(C(=O)COC(=O)Cc1c[nH]c2ccccc12)c1c(N)n(Cc2ccccc2)c(=O)[nH]c1=O	0	-13	101	·	-3	·	·
29	CC(C)CC#Cc1cnc2c(c1)C(=O)N([C@@H](C)CO)C[C@H](C)[C@@H](CN(C)C(=O)CCN1CCCCC1)O2	·	-9	·	·	·	·	·
30	COC(=O)C[C@H]1CC[C@@H]2[C@H](COc3ccc(NC(=O)c4cc(F)cc(F)c4)cc3C(=O)N2C)O1	·	2	·	·	·	·	·
31	O=c1c2cnn(-c3ccc(F)cc3)c2ncn1Cc1ccc(F)cc1	-1	-25	95	i	90*	-6	-1
32	O=c1c2cnn(-c3ccccc3)c2ncn1Cc1ccccc1	-2	-7	100	·	5	·	·
33	CCC(=O)Nc1ccc2c(c1)C(=O)N(C)C[C@@H](OC)[C@H](C)CN(Cc1cccnc1)[C@H](C)CO2	·	0	·	·	·	·	·
34	Cc1ccccc1CNC(=O)C1CCC(=O)N(Cc2cccc(F)c2)C1 (stereo not given)	-1	-4	·	i	4	-1	-2
35	Cc1ccsc1CCNC(=O)C1CCC(=O)N(CCc2cccc(F)c2)C1 (stereo not given)	0	10	110	i	-2	·	·
36	COC(=O)c1ccc(CNC(=O)C2CCC(=O)N(CCc3ccccc3)C2)cc1 (stereo not given)	0	-14	107	i	2	-9	1

(further entries)
item	SMILES	Tb MetRS inh	Yeast UUG start	DSG3 Ab inh	Rce1 inhib	Arr AP2 block	Arr-AP2 CP1	GST GSH counter
37	Cc1ccccc1CCNC(=O)C1CCC(=O)N(CCc2cccc(F)c2)C1 (stereo not given)	0	0	106	i	8	-9	-4
38	O=C(NCc1ccccc1OC(F)(F)F)C1CCC(=O)N(Cc2cccc(F)c2)C1 (stereo not given)	0	10	112	i	-14	·	·
39	Cc1noc(C)c1NC(=O)NCC[C@H]1CC[C@@H](NC(=O)Cc2cccnc2)[C@@H](CO)O1	·	-5	·	·	·	·	·
40	C[C@@H]1CN([C@@H](C)CO)C(=O)Cc2cc(NC(=O)CCCN(C)C)ccc2O[C@@H]1CN(C)S(=O)(=O)c1ccccc1	·	-12	·	·	·	·	·
41	C[C@H](CO)N1C[C@H](C)[C@@H](CN(C)C(=O)CC2CC2)Oc2ncc(-c3ccc(C#N)cc3)cc2C1=O	·	-7	·	·	·	·	·
42	O=[N+]([O-])c1ccccc1OC/C(=N\O)c1ccccc1	0	-18	100	i	15	·	·
43	Cc1ccc(/C(COc2ccccc2O)=N\O)cc1	0	-8	86	i	57*	8	0
44	Cc1cc(C)c(OCC(=O)Nc2nc3ccccc3[nH]2)c(C)c1	-1	·	106	i	56*	5	3
